{
  "source": "patent US20220233652A1",
  "about": "“Pharmaceutical Compositions Comprising Integration-Promoting Peptides” (priority 2018, published 2022)",
  "assay": "Mortality, body weight and safety in tumor mice models",
  "format": "in vivo, athymic nude mice",
  "conditions": "SC injection in new formulation (1% poloxamer, 9% lactose)",
  "description": "• 1. Mortality—every day • 2. Tumor measurements—twice a week • 3. Tumor weight post mortem • 4. Tissue preservation—kept in formalin or were snap freezed and kept at −80° C.\nThe first day of the study was defined as ‘Day 1’. The animals were administrated IP with either Vehicle (PBS or Formulation), lentiviral particles and SC with test items according to Table 27 on days 1, 4, 8 and 11. Body weight and tumor volume were checked on days 3, 7, 11, 14 and 17 (the latter was measured with a caliper). At the end of the experiment, on day 17, the mice were anesthetized and then sacrificed, and the tumors were removed, as well as lung, spleen, kidney and liver.",
  "data": [
    {"sequence": "WTAVQMAVFIHNFKRK [INS]", "values": [
      {"measurement": "Safety and efficacy of SC injection", "result": "both safe and effective"}
    ]}
  ]
}
